From US20240139189A1, “N6-ADENOSINE-[…] INHIBITORS IN CANCER TREATMENT” (priority 2021, published 2024)

The chains behind the UniProt entries cited, without tags or fusion partners.
UniProt Q86U44, whole entry, looked up: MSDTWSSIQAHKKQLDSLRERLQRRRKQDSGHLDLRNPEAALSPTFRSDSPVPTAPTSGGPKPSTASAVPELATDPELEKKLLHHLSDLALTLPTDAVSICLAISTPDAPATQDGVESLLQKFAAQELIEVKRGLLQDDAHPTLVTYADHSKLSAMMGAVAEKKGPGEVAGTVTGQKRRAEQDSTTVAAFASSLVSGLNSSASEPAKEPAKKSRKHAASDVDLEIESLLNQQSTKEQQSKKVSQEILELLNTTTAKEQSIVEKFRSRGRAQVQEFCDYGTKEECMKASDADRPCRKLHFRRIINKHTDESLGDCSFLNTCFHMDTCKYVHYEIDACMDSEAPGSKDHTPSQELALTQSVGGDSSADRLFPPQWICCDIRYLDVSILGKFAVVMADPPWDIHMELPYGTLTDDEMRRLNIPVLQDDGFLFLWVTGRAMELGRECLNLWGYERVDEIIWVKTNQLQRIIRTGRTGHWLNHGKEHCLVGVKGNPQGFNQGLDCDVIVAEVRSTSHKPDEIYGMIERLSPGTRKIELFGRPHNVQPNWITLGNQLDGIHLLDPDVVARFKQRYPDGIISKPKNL
UniProt Q9UBP6, whole entry, species assumed: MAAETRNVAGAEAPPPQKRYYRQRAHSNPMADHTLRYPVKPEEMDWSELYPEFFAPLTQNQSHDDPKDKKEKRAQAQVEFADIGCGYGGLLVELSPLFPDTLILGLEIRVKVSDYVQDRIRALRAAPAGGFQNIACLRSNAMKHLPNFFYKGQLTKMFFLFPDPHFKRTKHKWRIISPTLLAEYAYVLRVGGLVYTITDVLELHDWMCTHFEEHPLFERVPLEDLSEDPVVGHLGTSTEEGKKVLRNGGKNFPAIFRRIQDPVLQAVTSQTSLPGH

Key:
METTL3 = METTL3 (Homo sapiens (Human), UniProt Q86U44); experiment: TR-FRET biochemical assay (time resolved-Förster resonance energy transfer); settings: IC50 data for N6-adenosine-methyltransferase
Source text: The bonds formed are depicted in red. The IC50 values refer to the biochemical assay based on time resolved-Forster resonance energy transfer (TR-FRET). B) Superimposition of compounds 1 (grey, from X-ray with METTL3, PDB code: 7NHI) and 2 (cyan, drawn in Pymol).

METTL1 = METTL1 (Homo sapiens (Human), UniProt Q9UBP6); experiment: Protein thermal shift assay, METTL1; type: binding; settings: read-out: ΔTm

| SMILES | IC50 (METTL3) | ΔTm at 100 µM (METTL1) |
| --- | --- | --- |
| CNc1cc(N2CCC3(CC2)CN(c2ccc(CN4CCC(C)(F)CC4)cc2)CC(=O)N3)ncn1 [Compound 53, 4-(4-((4-Fluoro-4-methylpiperidin-1-yl)methyl)phenyl)-9-(6-(methylamino)pyrimidin-4-yl)-1,4,9-triazaspiro[5.5]undecan-2-one] | 69 nM | – |
| CC1(C)CCN(Cc2ccc(N3CC(=O)NC4(CCN(c5ncnc6[nH]ncc56)CC4)C3)cc2)CC1 [Compound 56, 4-(4-((4,4-dimethylpiperidin-1-yl)methyl)phenyl)-9-(1H-pyrazolo[3,4-d]pyrimidin-4-yl)-1,4,9-triazaspiro[5.5]undecan-2-one] | 140 nM | – |
| Nc1ncnc2c1ncn2[C@@H]1O[C@H](CSCC[C@H](N)C(=O)O)[C@@H](O)[C@H]1O [SAH, S-adenosyl-L-homocysteine, reference compound] | – | 3.5 °C |
